Measurements taken from US20260184748A1, “COMPOSITIONS COMPRISING OCTADECANEUROPEPTIDES (ODN) AND SYNTHETIC DERIVATIVES THEREOF AND METHODS OF USE FOR MODULATION OF FOOD INTAKE, OBESITY, BODY WEIGHT, NAUSEA, AND EMESIS” (The Trustees of the University of Pennsylvania, priority 2022, published 2026).
“Also recorded” adds a separate entry of the source. Values belong to the molecule of their own block, whether it stands above or below them.

Amino acid sequences for entries named in this document (tags omitted). A change or cut given only in a name is not applied to a line headed by its entry.
UniProt P47900: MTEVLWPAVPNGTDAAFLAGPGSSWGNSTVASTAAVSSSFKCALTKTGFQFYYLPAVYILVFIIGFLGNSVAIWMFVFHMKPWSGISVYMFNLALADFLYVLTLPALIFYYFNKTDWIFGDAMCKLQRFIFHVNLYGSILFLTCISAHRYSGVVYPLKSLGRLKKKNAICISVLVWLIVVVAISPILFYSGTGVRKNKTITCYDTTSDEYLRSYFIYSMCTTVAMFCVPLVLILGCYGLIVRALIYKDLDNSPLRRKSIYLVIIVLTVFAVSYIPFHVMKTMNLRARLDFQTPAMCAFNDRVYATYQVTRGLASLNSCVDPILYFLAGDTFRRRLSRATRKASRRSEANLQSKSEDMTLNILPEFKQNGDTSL
UniProt P43116: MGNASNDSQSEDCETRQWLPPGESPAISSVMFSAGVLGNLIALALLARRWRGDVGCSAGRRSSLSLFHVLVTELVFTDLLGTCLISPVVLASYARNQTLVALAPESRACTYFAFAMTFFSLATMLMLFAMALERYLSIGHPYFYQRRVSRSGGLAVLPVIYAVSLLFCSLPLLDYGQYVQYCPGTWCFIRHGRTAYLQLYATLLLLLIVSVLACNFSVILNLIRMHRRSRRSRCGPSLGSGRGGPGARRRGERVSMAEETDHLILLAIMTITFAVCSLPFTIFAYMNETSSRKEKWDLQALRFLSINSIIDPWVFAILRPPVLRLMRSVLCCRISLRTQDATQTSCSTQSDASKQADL

Columns and labels:
P2RY1 = P2RY1 (Homo sapiens, UniProt P47900); assay: Arrestin agonist mode; assay type: cell-based; conditions: read-out: RC50 (the source's name)
PTGER2 = PTGER2 (Homo sapiens, UniProt P43116); assay: Arrestin agonist mode; assay type: cell-based; conditions: read-out: RC50 (the source's name)
[1] = Kaolin intake (pica) in rats; assay type: in vivo, rat; conditions: 4th ventricle injection

EC50 (P2RY1): 20.4 nM
Molecule: CSc1nc(N)c2ncn([C@@H]3O[C@H](COP(=O)(O)OP(=O)(O)O)[C@@H](O)[C@H]3O)c2n1

Molecule: CCCCC[C@H](O)/C=C/[C@H]1[C@H](O)CC(=O)[C@@H]1C/C=C\CCCC(=O)O [Prostaglandin E2]
EC50 (PTGER2): 687 nM

Molecule: exendin-4 [Ex-4]
kaolin intake ([1]; HFD-maintained rats): increased kaolin intake
kaolin intake ([1]; chow-maintained rats): increased kaolin consumption in chow-maintained rats relative to controls; also recorded: increased kaolin intake
